Consider 25 compounds from patent US9725465B2, “Biaryl acetamide compounds and methods of use thereof” (Ambit Biosciences Corporation, priority 2013, dated 2017).

Assay [1] has as its system Ba/F3 cells expressing FLT3-ITD-D835V.
For assay [2], the system named is Ba/F3 cells expressing FLT3-ITD.

Some results are limits rather than exact numbers.

As usually defined, the IC50 is the concentration at which inhibition is half-maximal. Read a low IC50 as greater potency in that assay. As to `CCN1CCN(CCOc2cc3ncc(-c4ccc(CC(=O)Nc5cc(C6(C(F)(F)F)CC6)on5)c(F)c4)nc3cc2OC)CC1` [Example 105, 2-[4-[6-[2-(4-ethylpiperazin-1-yl)ethoxy]-7-methoxy-quinoxalin-2-yl]-2-fluoro-phenyl]-N-[5-[1-(trifluoromethyl)cyclo-propyl]isoxazol-3-yl]acetamide], the concentration for half-maximal inhibition (IC50) in assay [1] and in assay [2] was under 10 nM in each case.
Regarding `COc1cc2ncc(-c3ccc(CC(=O)Nc4cc(C5(C(F)(F)F)CC5)nn4C)c(F)c3)nc2cc1OC` [Example 172, 2-[4-(6,7-dimethoxyquinoxalin-2-yl)-2-fluoro-phenyl]-N-[2-methyl-5-[1-(trifluoro-methyl)cyclopropyl]pyrazol-3-yl]acetamide], the IC50 in assay [1] and in assay [2] was under 10 nM in each case.
For `COc1cc2ncc(-c3ccc(CC(=O)Nc4cc(C5(C(F)(F)F)CC5)nn4C(C)(C)C)c(F)c3)nc2cc1OC` [Example 173, N-[2-tert-butyl-5-[1-(trifluoromethyl)cyclo-propyl]pyrazol-3-yl]-2-[4-(6,7-dimethoxy-quinoxalin-2-yl)-2-fluoro-phenyl]acetamide], the IC50 is over 50 nM in assay [1] and under 10 nM in assay [2].
On the same counts, the results for `COc1cc2nc(-c3ccc(CC(=O)Nc4cc(C5(C(F)(F)F)CC5)on4)c(F)c3)cnc2cc1OCCN1CC(C)OC(C)C1` (centres unmarked) [Example 174, 2-[4-[6-[2-(2,6-dimethylmorpholin-4-yl)ethoxy]-7-methoxy-quinoxalin-2-yl]-2-fluoro-phenyl]-N-[5-[1-(trifluoro-methyl)cyclo-propyl]isoxazol-3-yl]acetamide] are under 10 nM and under 10 nM.
Turning to `CNCCOc1cc2ncc(-c3ccc(CC(=O)Nc4cc(C5(C(F)(F)F)CC5)on4)c(F)c3)nc2cc1OC` [Example 175, 2-[2-fluoro-4-[7-methoxy-6-[2-(methyl-amino)ethoxy]quinoxalin-2-yl]phenyl]-N-[5-[1-(trifluoro-methyl)cyclo-propyl]isoxazol-3-yl]acetamide], the 50% inhibitory concentration (IC50) in assay [1] and in assay [2] was under 10 nM in each case.
`COc1cc2nc(-c3ccc(CC(=O)Nc4cc(C5(C(F)(F)F)CC5)on4)c(F)c3)cnc2cc1OCCN(C)C(C)=O` [Example 176, 2-[4-[6-[2-[acetyl(methyl)amino]ethoxy]-7-methoxy-quinoxalin-2-yl]-2-fluoro-phenyl]-N-[5-[1-(trifluoromethyl)cyclo-propyl]isoxazol-3-yl]acetamide]: the IC50 in assay [1] and in assay [2] was under 10 nM each time.
For the compound `COCCOc1cc2cc(-c3ccc(CC(=O)Nc4cc(C(C)(C)C(F)(F)F)on4)c(F)c3)cnc2cc1OC` [Example 177, 2-[2-fluoro-4-[7-methoxy-6-(2-methoxyethoxy)-3-quinolyl]phenyl]-N-[5-(2,2,2-trifluoro-1,1-dimethyl-ethyl)isoxazol-3-yl]acetamide], the half-inhibitory concentration (IC50) in assay [1] and in assay [2] was under 10 nM each time.
Consider `COc1cc2ncc(-c3ccc(CC(=O)Nc4cc(C(C)(C)C(F)(F)F)on4)c(F)c3)cc2cc1OCCO` [Example 178, 2-[2-fluoro-4-[6-(2-hydroxyethoxy)-7-methoxy-3-quinolyl]phenyl]-N-[5-(2,2,2-trifluoro-1,1-dimethyl-ethyl)isoxazol-3-yl]acetamide], for which the 50% inhibitory concentration (IC50) in assay [1] and in assay [2] was under 10 nM in each case.
With `COc1cc2ncc(-c3ccc(CC(=O)Nc4cc(C5(C(F)(F)F)CC5)on4)c(F)c3)cc2cc1OCCO` [Example 179, 2-[2-fluoro-4-[6-(2-hydroxyethoxy)-7-methoxy-3-quinolyl]phenyl]-N-[5-[1-(trifluoromethyl)cyclo-propyl]isoxazol-3-yl]acetamide], the IC50 in assay [1] and in assay [2] was under 10 nM throughout.
For `COc1cc2ncc(-c3ccc(CC(=O)Nc4cc(C5(C(F)(F)F)CC5)n[nH]4)c(F)c3)nc2cc1OC` [Example 180, 2-[4-(6,7-dimethoxyquinoxalin-2-yl)-2-fluoro-phenyl]-N-[3-[1-(trifluoromethyl)cyclo-propyl]-1H-pyrazol-5-yl]acetamide], the concentration for half-maximal inhibition (IC50) in assay [1] and in assay [2] was under 10 nM in each case.
With `COc1cc2ncc(-c3ccc(CC(=O)Nc4cc(C(C)(C)C(F)(F)F)nn4C)c(F)c3)nc2cc1OC` [Example 181, 2-[4-(6,7-dimethoxyquinoxalin-2-yl)-2-fluoro-phenyl]-N-[2-methyl-5-(2,2,2-trifluoro-1,1-dimethyl-ethyl)pyrazol-3-yl]acetamide], the half-maximal inhibitory concentration (IC50) in assay [1] and in assay [2] was under 10 nM each time.
`COc1cc2ncc(-c3ccc(CC(=O)Nc4cc(C(C)(C)C(F)(F)F)n[nH]4)c(F)c3)nc2cc1OC` [Example 182, 2-[4-(6,7-dimethoxyquinoxalin-2-yl)-2-fluoro-phenyl]-N-[3-(2,2,2-trifluoro-1,1-dimethyl-ethyl)-1H-pyrazol-5-yl]acetamide]: the 50% inhibitory concentration (IC50) in assay [1] and in assay [2] was under 10 nM in each case.
Turning to `COc1cc2nc(-c3ccc(CC(=O)Nc4cc(C5(C(F)(F)F)CC5)on4)c(F)c3)cnc2cc1OCC#N` [Example 183, 2-[4-[6-(cyanomethoxy)-7-methoxy-quinoxalin-2-yl]-2-fluoro-phenyl]-N-[5-[1-(trifluoromethyl)cyclo-propyl]isoxazol-3-yl]acetamide], the concentration for half-maximal inhibition (IC50) in assay [1] and in assay [2] was under 10 nM each time.
With `COc1cc2ncc(-c3ccc(CC(=O)Nc4cc(C(C)(C)C(F)(F)F)on4)c(F)c3)nc2cc1O` [Example 184, 2-[2-fluoro-4-(7-hydroxy-6-methoxy-quinoxalin-2-yl)phenyl]-N-[5-(2,2,2-trifluoro-1,1-dimethyl-ethyl)isoxazol-3-yl]acetamide], the 50% inhibitory concentration (IC50) in assay [1] and in assay [2] was under 10 nM each time.
Consider `COc1cc2nc(-c3ccc(CC(=O)Nc4cc(C5(C(F)(F)F)CC5)on4)c(F)c3)cnc2cc1OCC(=O)N(C)C` [Example 186, 2-[4-[6-[2-(dimethylamino)-2-oxo-ethoxy]-7-methoxy-quinoxalin-2-yl]-2-fluoro-phenyl]-N-[5-[1-(trifluoro-methyl)cyclopropyl]isoxazol-3-yl]acetamide], for which the IC50 in assay [1] and in assay [2] was under 10 nM each time.
In the case of `COc1cc2ncc(-c3ccc(CC(=O)Nc4cc(C(C)(C)C(F)(F)F)on4)c(F)c3)nc2cc1OCCN1CCOCC1` [Example 187, 2-[2-fluoro-4-[6-methoxy-7-(2-morpholino-ethoxy)quinoxalin-2-yl]phenyl]-N-[5-(2,2,2-trifluoro-1,1-dimethyl-ethyl)isoxazol-3-yl]acetamide], the IC50 in assay [1] and in assay [2] was under 10 nM throughout.
With `COCCOc1cc2cc(-c3ccc(CC(=O)Nc4cc(C5(C(F)(F)F)CC5)on4)c(F)c3)cnc2cc1OC` [Example 188, 2-[2-fluoro-4-[7-methoxy-6-(2-methoxyethoxy)-3-quinolyl]phenyl]-N-[5-[1-(trifluoromethyl)cyclo-propyl]isoxazol-3-yl]acetamide], the 50% inhibitory concentration (IC50) in assay [1] and in assay [2] was under 10 nM in each case.
Consider `COc1cc2ncc(-c3ccc(CC(=O)Nc4cc(C(C)(C)C(F)(F)F)on4)c(F)c3)cc2cc1OCCN1CCOCC1` [Example 189, 2-[2-fluoro-4-[7-methoxy-6-(2-morpholinoethoxy)-3-quinolyl]phenyl]-N-[5-(2,2,2-trifluoro-1,1-dimethyl-ethyl)isoxazol-3-yl]acetamide], for which the IC50 in assay [1] and in assay [2] was under 10 nM throughout.
For the compound `COc1cc2ncc(-c3ccc(CC(=O)Nc4cc(C5(C(F)(F)F)CC5)on4)c(F)c3)cc2cc1OCCN1CCOCC1` [Example 190, 2-[2-fluoro-4-[7-methoxy-6-(2-morpholinoethoxy)-3-quinolyl]phenyl]-N-[5-[1-(trifluoromethyl)cyclo-propyl]isoxazol-3-yl]acetamide], the IC50 in assay [1] and in assay [2] was under 10 nM each time.
Regarding `COc1cc2ncc(-c3ccc(CC(=O)Nc4cc(C(C)(C)C(F)(F)F)on4)c(F)c3)nc2cc1OCCN1CC[C@H](O)C1` [Example 191, 2-[2-fluoro-4-[7-[2-[(3S)-3-hydroxypyrrolidin-1-yl]ethoxy]-6-methoxy-quinoxalin-2-yl]phenyl]-N-[5-(2,2,2-trifluoro-1,1-dimethyl-ethyl)isoxazol-3-yl]acetamide], the IC50 in assay [1] and in assay [2] was under 10 nM each time.
In the case of `COc1cc2ncc(-c3ccc(CC(=O)Nc4cc(C5(C(F)(F)F)CC5)on4)c(F)c3)cc2cc1OCCN` [Example 192, 2-[4-[6-(2-aminoethoxy)-7-methoxy-3-quinolyl]-2-fluoro-phenyl]-N-[5-[1-(trifluoromethyl)cyclo-propyl]isoxazol-3-yl]acetamide], the 50% inhibitory concentration (IC50) in assay [1] was 10 to 20 nM; in assay [2], under 10 nM.
`COc1cc2ncc(-c3ccc(CC(=O)Nc4cc(C5(C(F)(F)F)CC5)on4)c(F)c3)cc2cc1OCCNC(C)=O` [Example 193, 2-[4-[6-(2-acetamidoethoxy)-7-methoxy-3-quinolyl]-2-fluoro-phenyl]-N-[5-[1-(trifluoromethyl)cyclo-propyl]isoxazol-3-yl]acetamide]: the IC50 in assay [1] and in assay [2] was under 10 nM in each case.
For `COc1cc2ncc(-c3ccc(CC(=O)Nc4cc5n(n4)CCC5(C)C)c(F)c3)nc2cc1OC` [Example 194, 2-[4-(6,7-dimethoxyquinoxalin-2-yl)-2-fluoro-phenyl]-N-(4,4-dimethyl-5,6-dihydropyrrolo[1,2-b]pyrazol-2-yl)acetamide], the IC50 in assay [1] and in assay [2] was under 10 nM each time.
Take `COc1cc2nc(-c3ccc(CC(=O)Nc4cc(C5(C(F)(F)F)CC5)on4)c(F)c3)cnc2cc1OCCCO` [Example 195, 2-[2-fluoro-4-[6-(3-hydroxypropoxy)-7-methoxy-quinoxalin-2-yl]phenyl]-N-[5-[1-(trifluoromethyl)cyclo-propyl]isoxazol-3-yl]acetamide]: the 50% inhibitory concentration (IC50) in assay [1] and in assay [2] was under 10 nM in each case.
In the case of `CNCCOc1cc2nc(-c3ccc(CC(=O)Nc4cc(C(C)(C)C(F)(F)F)on4)c(F)c3)cnc2cc1OC` [Example 196, 2-[2-fluoro-4-[6-methoxy-7-[2-(methyl-amino)ethoxy]quinoxalin-2-yl]phenyl]-N-[5-(2,2,2-trifluoro-1,1-dimethyl-ethyl)isoxazol-3-yl]acetamide], the IC50 in assay [1] and in assay [2] was under 10 nM each time.
